The source of these data is patent US20040096845A1, “Peritoneal dialysates” (priority 2000, published 2004).

Sequences of proteins named here, by UniProt entry; tags and fusion partners are left off. Residues count along the entry.
UniProt P02768, 25-609: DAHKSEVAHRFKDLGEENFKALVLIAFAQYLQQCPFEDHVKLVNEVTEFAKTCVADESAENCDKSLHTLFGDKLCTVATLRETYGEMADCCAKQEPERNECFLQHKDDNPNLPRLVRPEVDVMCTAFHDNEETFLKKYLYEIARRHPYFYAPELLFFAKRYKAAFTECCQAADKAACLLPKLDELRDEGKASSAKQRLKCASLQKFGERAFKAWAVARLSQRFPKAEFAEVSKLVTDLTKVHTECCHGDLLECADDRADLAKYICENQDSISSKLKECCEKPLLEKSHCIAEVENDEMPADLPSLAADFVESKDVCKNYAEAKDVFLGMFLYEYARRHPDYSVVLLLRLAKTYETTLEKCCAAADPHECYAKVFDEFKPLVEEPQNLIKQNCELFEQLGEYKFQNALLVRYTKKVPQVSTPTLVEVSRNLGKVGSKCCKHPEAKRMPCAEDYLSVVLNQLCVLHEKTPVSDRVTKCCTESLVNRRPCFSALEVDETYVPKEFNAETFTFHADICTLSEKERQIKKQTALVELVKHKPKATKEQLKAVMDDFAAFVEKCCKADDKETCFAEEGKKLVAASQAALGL

The subject of test [1] is human serum albumin. The test is described as follows: Suppression of methylglyoxal-induced cross linking of human serum albumin, by fluorescent intensity. The class given is biochemical.
The subject of test [2] is human serum albumin. The class given is biochemical.
The target in test [3] is human serum albumin (Homo sapiens, UniProt P02768).

Like-named read-outs stand apart in the source and are kept apart here.

For “2-mercapto-4-methyl-thiazole acetic acid”, the “Increase in FI (%)” value in the test with human serum albumin [1] amounted to 82%.
In the case of `OCCS` [2-Mercaptoethanol], the “Increase in FI (%)” value in the test with human serum albumin [2] came to 42%.
As for `O.Oc1ccc(-c2nnns2)cc1` [4-(1,2,3,4-thiatriazo)phenol hydrate], the “Increase in FI (%)” value with human serum albumin [1] came out at 92%.
`O[C@H](CS)[C@@H](O)CS` [Dithio erythrytol]: the “Increase in FI (%)” value in the test on human serum albumin [2] came to 31%.
In the case of `N[C@@H](CCC(=O)N[C@@H](CS)C(=O)NCC(=O)O)C(=O)O` [Glutathione], the “Increase in FI (%)” value with human serum albumin [2] stood at 25%.
Consider `CC(=O)N[C@@H](CS)C(=O)O` [N-Acetylcysteine, reference compound], for which the “Increase in FI (%)” value in the test on human serum albumin [2] is on record as 7%.
Take `O=C(C[n+]1ccsc1)c1ccccc1.[Br-]` [N-Phenacyl thiazolium bromide, reference compound]: the “Decrease % (FI, 14th day vs 7th day)” value at human serum albumin [3] (albumin 50 mg/ml pre-incubated with 3-deoxyglucosone 50 mM/l 7 days, dialysed, additive 20 mM/l in ethanol : phosphate buffer 1:1, another 7 days 37° C.) is −21%.
In the case of `O.O.O=c1c(O)c(-c2ccc(O)c(O)c2)oc2cc(O)cc(O)c12` [Quercetin dihydrate], the “Increase in FI (%)” value in the test on human serum albumin [1] is on record as 19%.
Regarding `CC(=O)SC1CC(=O)OC1=O` (centres unmarked) [S-Acetylmercaptosuccinic anhydride], in the test with human serum albumin [2], the “Increase in FI (%)” value stood at 50%.
In the case of `O=S([O-])O.[Na+]` [Sodium bisulfite], the “Increase in FI (%)” value in the test with human serum albumin [1] was determined as 46%.
For `O=S([O-])[O-].[Na+].[Na+]` [Sodium sulfite], the “Increase in FI (%)” value in the test with human serum albumin [1] turned out to be 61%.
`Nc1ccc(S(=O)(=O)Nc2nccs2)cc1` [reference compound]: in the test on human serum albumin [1] (methylglyoxal, human serum albumin, suppressor dissolved in dimethylsulfoxide : phosphate buffer solution 1:3, relative to Control 2 = 100), the “Increase in FI (%)” value came out at 45%.
Take Catechin dihydrate: the “Decrease % (FI, 14th day vs 7th day)” value at human serum albumin [3] is −4%.
With Catechin hydrate, the “Increase in FI (%)” value in the test on human serum albumin [1] is on record as 64%.
